Here are results for two molecules from PMC9065038 (Scientific Reports, 2022).

Chains of the proteins cited; added tags and fusions are not shown. Lines headed by an entry give the natural chain unless they say otherwise; changes in a name come on top.
UniProt P35372, whole entry, looked up: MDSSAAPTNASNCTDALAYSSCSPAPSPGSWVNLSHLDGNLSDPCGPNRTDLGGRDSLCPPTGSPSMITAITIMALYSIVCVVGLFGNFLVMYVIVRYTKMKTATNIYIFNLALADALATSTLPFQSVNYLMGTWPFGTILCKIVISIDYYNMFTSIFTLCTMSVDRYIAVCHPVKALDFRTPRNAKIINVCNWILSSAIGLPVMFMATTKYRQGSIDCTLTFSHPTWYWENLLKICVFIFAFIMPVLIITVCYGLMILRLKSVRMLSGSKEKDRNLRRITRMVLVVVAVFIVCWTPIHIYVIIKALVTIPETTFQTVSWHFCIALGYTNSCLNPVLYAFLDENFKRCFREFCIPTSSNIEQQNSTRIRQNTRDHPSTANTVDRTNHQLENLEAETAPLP
UniProt P41146: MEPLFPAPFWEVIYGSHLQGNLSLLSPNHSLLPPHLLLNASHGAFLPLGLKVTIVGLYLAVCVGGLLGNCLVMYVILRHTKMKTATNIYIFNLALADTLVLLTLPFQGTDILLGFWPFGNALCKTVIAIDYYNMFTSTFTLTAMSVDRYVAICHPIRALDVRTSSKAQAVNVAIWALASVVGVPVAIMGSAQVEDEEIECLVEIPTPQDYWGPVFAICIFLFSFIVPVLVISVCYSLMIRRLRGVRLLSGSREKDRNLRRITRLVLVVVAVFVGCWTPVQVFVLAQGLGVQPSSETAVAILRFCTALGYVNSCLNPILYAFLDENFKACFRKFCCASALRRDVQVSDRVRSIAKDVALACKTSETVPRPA

Usually Ki stands for a dissociation constant, usually derived from enzyme kinetics or from competition with a known ligand. One may read the EC50 as the concentration giving half of the maximal effect.

The structures appear in SMILES notation.

In series [1] the target is T1, human MOP (Homo sapiens, UniProt P35372). The series can be described thus: Radioligand displacement competition binding, [3H]DAMGO, CHO cell membranes.
For series [2] the following is noted: nonhuman primates; cited from earlier work.
For series [3] the following is noted: human clinical trials; cited from earlier work.
Series [4] has as its target T2, human NOP (Homo sapiens, UniProt P41146). The series can be described thus: [35S]GTPγS binding assay, CHO cell membranes. Conditions: relative to N/OFQ. A general note: Binding of GTPγS marks nucleotide exchange on a G protein.
For series [5], the target named is T1, human MOP. The series can be described thus: [35S]GTPγS binding assay, CHO cell membranes. As to conditions: relative to DAMGO.
Series [6] deals with T2, human NOP. The experiment in a line: Radioligand displacement competition binding, [3H]N/OFQ, CHO cell membranes.
Series [7] has as its target T2, human NOP. The series can be described thus: GIRK channel-based fluorescent membrane potential assay in AtT-20 cells.
Series [8] concerns the target T1, human MOP. The series is described as above.

As to `CN(C)[C@]1(c2ccccc2)CC[C@]2(CC1)OCCc1c3cc(F)ccc3[nH]c12`, the “affinity at MOP (in words)” value in series [1] is “high affinity”. In addition, in series [2], the reinforcing effects entry is listed as “produced reinforcing effects” and the “respiratory or motor deficits, itching” value is “did not elicit respiratory or motor deficits, or itching”. In addition, the drug liking result in series [3] was “produced drug liking”.

For the molecule `O=C1Cc2ccccc2N1C1CCN(C2C3CCCC2CCC3)CC1` (stereo not drawn) [AT-201, 1-(1-(bicyclo[3.3.1]nonan-9-yl)piperidin-4-yl)indolin-2-one], in series [4], the “agonist efficacy at NOP in [35S]GTPγS binding (in words)” value was “partial agonist efficacy”. Moreover, in series [5], the “agonist efficacy at MOP in [35S]GTPγS binding (in words)” value was “partial agonist efficacy”. The “affinity at NOP (in words)” value in series [6] (radioligand displacement) is on record as “high affinity”. Further, the inhibition constant (Ki) in series [6] (read-out: Radioligand Displacement Ki, NOP, CHO cells stably expressing NOP, [3H]N/OFQ) was 5.36 nM. The “agonist efficacy at NOP in GIRK assay (in words)” value in series [7] (compared to N/OFQ) is recorded as “partial agonist efficacy”. Also, the EC50 in series [7] (read-out: GIRK NOP EC50, stably transfected AtT-20 cells) came to 6.3 nM; in series [8] (read-out: GIRK MOP EC50, stably transfected AtT-20 cells), 3.3 nM. For the same molecule, the “agonist efficacy at MOP in GIRK assay (in words)” value in series [8] (compared to DAMGO) is “high agonist efficacy”.
